Data reported in patent US8895756B2, “Bendamustine pharmaceutical compositions” (priority 2005, dated 2014).

How the values were obtained:
[1] = Reconstitution time of lyophilized bendamustine; type: physicochemical; details: lyophilized vials from 10% ethanol, 20% ethanol, 10% iso-propanol, 20% iso-propanol solutions (15 mg/mL bendamustine, 25.5 mg/mL mannitol)
Text: All alcohols tested increased the stability and solubility of bendamustine. However, a significant mole fraction was required to affect the stability of the filling solution and the ease of manufacturing. Smaller alcohols have the undesirable effect of lowering the freezing point of the bulk solution and thus requiring long lyophilization cycles at lower temperatures. Higher concentrations of methanol and ethanol produced unattractive cakes that were difficult to reconstitute. 10% ethanol, 20% ethanol, 10% iso-propanol, 20% iso-propanol, or 30% TBA aqueous solutions containing bendamustine (15 mg/mL), mannitol (25.5 mg/mL) were prepared and lyophilized. The lyophilized vials filled from solutions of 10% ethanol, 20% ethanol, 10% iso-propanol, 20% iso-propanol produced either a collapsed cake or a film residue. The only solvent system producing an acceptable cake was 30% TBA.
One of the factors affecting the ease of reconstitution is the porosity of the lyophilate. In general, amorphously precipitated solids with little surface area are more difficult to solubilize. […] Based on our experience with several lyophilization solvent systems and not wishing to be bound to any particular theory, the problems associated with Ribomustin® reconstitution may be associated with precipitation caused by melt back during lyophilization. […]

[2] = 30% (v/v) TBA, 15 mg/mL bendamustine, 25.5 mg/mL mannitol

Cl.Cn1c(CCCC(=O)O)nc2cc(N(CCCl)CCCl)ccc21 [bendamustine, 4-{5-[Bis(2-chloroethyl)amino]-1-methyl-2-benzimidazolyl}butyric acid]
reconstitution time until fully dissolved [1]: > 45 min | precipitation [2]: no precipitate
